Read-outs that look alike come from different tables or passages of the source.
Tests used:
[1] = NanoClick cell permeability assay; format: in vitro ADME
[2] = tested on: pERK in A375 cells (KRAS^WT, BRAF^V600E); assay: Cellular phospho-ERK assay in A375 cells (counter-screen); format: cell-based
[3] = read-out: NanoClick EC50 4 h, 4 h
[4] = read-out: NanoClick EC50 18 h, 18 h

CC[C@H](C)[C@@H]1NC(=O)[C@H](Cc2ccc(O)cc2)NC(=O)[C@H](CC(C)C)NC(=O)[C@@H]2CCCN2C(=O)[C@H](NC(=O)[C@H](CCCCN=[N+]=[N-])NC(C)=O)CSCSC[C@@H](C(=O)N[C@@H](CCCNC(=N)N)C(N)=O)NC(=O)[C@H](C(C)C)NC(=O)[C@@H]2CCCN2C(=O)[C@H](CC(=O)O)NC(=O)[C@H](Cc2ccc(O)cc2)NC(=O)[C@H](CO)NC1=O [Compound 24]
EC50 [1, 3]: > 10 µM | EC50 [1, 4]: 4.46 µM

CC[C@H](C)[C@@H]1NC(=O)[C@H](Cc2ccc(O)cc2)NC(=O)[C@H](CC(C)C)NC(=O)[C@@H]2CCCN2C(=O)[C@H](NC(=O)[C@H](CCCCN=[N+]=[N-])NC(C)=O)CSCSC[C@@H](C(N)=O)NC(=O)[C@H](C(C)C)NC(=O)[C@@H]2CCCN2C(=O)[C@H](CC(=O)O)NC(=O)[C@H](Cc2ccc(O)cc2)NC(=O)[C@H](CO)NC1=O [Compound 25]
EC50 [1, 3]: > 10 µM | EC50 [1, 4]: 5.14 µM

CC[C@H](C)[C@@H]1NC(=O)[C@H](Cc2ccc(O)cc2)NC(=O)[C@H](CC(C)C)NC(=O)[C@@H]2CCCN2C(=O)[C@H](NC(=O)[C@H](CCCNC(=N)N)NC(=O)[C@H](CCCNC(=N)N)NC(=O)[C@H](CCCCN=[N+]=[N-])NC(C)=O)CSCSC[C@@H](C(=O)N[C@@H](CCCNC(=N)N)C(=O)N[C@@H](CCCNC(=N)N)C(N)=O)NC(=O)[C@H](C(C)C)NC(=O)[C@@H]2CCCN2C(=O)[C@H](CC(=O)O)NC(=O)[C@H](Cc2ccc(O)cc2)NC(=O)[C@H](CO)NC1=O [MP-1687]
EC50 [1, 3]: 4.55 µM | EC50 [1, 4]: 4.71 µM

CC[C@H](C)[C@@H]1NC(=O)[C@H](Cc2ccc(O)cc2)NC(=O)[C@H](CC(C)C)NC(=O)[C@@H]2CCCN2C(=O)[C@H](NC(=O)[C@@H](CCCNC(=N)N)NC(=O)[C@@H](CCCNC(=N)N)NC(=O)[C@@H](CCCNC(=N)N)NC(=O)[C@@H](CCCNC(=N)N)NC(=O)[C@H](CCCCN=[N+]=[N-])NC(C)=O)CSCSC[C@@H](C(=O)N[C@H](CCCNC(=N)N)C(=O)N[C@H](CCCNC(=N)N)C(=O)N[C@H](CCCNC(=N)N)C(=O)N[C@H](CCCNC(=N)N)C(N)=O)NC(=O)[C@H](C(C)C)NC(=O)[C@@H]2CCCN2C(=O)[C@H](CC(=O)O)NC(=O)[C@H](Cc2ccc(O)cc2)NC(=O)[C@](C)(CO)NC1=O [MP-3995]
EC50 ([2]; read-out: A375 pERK EC50 1 h, 1 h treatment): > 50 µM | EC50 ([2]; read-out: A375 pERK EC50 18 h, 18 h treatment): > 50 µM | EC50 [1, 3]: 1.78 µM | EC50 [1, 4]: 0.0321 µM

— publication PMC8672774, “Discovery of cell active macrocyclic peptides with on-target inhibition of KRAS signaling” (Chemical Science, 2021)
